Literature values as cited in patent US10968216B2 (priority 2016, dated 2021).

Test system: acute promyelocytic leukemia (APL)
Conditions: human, in vivo; cited from earlier work

Question: With ATRA as the substance, how does the overall survival rates read?
Answer: over 70%
